Assay [1] concerns the target T1, SARS-CoV-2 M^pro (Severe acute respiratory syndrome coronavirus 2, UniProt P0DTD1). The experiment in a line: biochemical. Format: binding.
Assay [2] concerns the target T1, SARS-CoV-2 M^pro. The experiment in a line: biochemical. Format: binding. The source holds these as a separate data set.
In assay [3] the target is T1, SARS-CoV-2 M^pro. The assay is described as follows: FRET-based enzymatic activity assay. Format: biochemical.

Where two headings read alike, the source gives them in different places.

The Kd is the concentration at which binding is half-saturated. The low end stands for tighter binding, the high end for weaker binding. A word on the IC50: it is the concentration that inhibits the measured activity by half. Read a low IC50 as greater potency. For `COc1cc2ccc(=O)oc2cc1O` [Scopoletin, 6-methoxy-7-hydrocoumarian], the dissociation constant (Kd) was 31.5 µM at SARS-CoV-2 M^pro [1] and 424 µM at SARS-CoV-2 M^pro [2]. Besides, the KA on SARS-CoV-2 M^pro [2] worked out at 2360 M⁻¹. 15.8 µM corresponded to half-maximal inhibition on SARS-CoV-2 M^pro [3] (IC50).

The values above are taken from PMC11945487 (Viruses, 2025).
